Measured values from article PMC8563940 (Scientific Reports, 2021).

Chains of the proteins cited; added tags and fusions are not shown. Residues count along the entry.
UniProt P22303, 32-614 limits assumed: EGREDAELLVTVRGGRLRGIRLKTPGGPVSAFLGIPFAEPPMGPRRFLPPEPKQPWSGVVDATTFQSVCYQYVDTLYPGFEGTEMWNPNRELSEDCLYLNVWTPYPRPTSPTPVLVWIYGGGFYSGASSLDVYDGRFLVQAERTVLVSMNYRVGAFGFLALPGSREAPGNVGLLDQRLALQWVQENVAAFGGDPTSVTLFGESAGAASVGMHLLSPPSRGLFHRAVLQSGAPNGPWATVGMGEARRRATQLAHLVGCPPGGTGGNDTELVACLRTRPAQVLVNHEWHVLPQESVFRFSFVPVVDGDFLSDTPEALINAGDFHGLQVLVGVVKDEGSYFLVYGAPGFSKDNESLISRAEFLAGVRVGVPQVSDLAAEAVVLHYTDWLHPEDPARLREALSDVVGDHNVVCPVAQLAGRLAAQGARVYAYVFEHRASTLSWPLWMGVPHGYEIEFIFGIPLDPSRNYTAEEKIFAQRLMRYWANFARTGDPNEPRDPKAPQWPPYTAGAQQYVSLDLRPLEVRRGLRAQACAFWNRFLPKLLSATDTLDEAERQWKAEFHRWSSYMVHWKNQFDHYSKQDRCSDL

Tests used:
Assay type in all cases: biochemical
[1] = target: methamidophos-inhibited hAChE (Homo sapiens, UniProt P22303); experiment: Oxime reactivation of methamidophos-inhibited hAChE; details: 25 °C; for Kd: read-out: KOX, dissociation constant of the phosphylated enzyme-oxime reversible complex
human AChE = human AChE (Homo sapiens, UniProt P22303); experiment: Inhibition of AChE with 1 µM oxime
[2] = target: fenamiphos-inhibited hAChE (Homo sapiens, UniProt P22303); experiment: Oxime reactivation of fenamiphos-inhibited hAChE; details: 25 °C; for Kd: read-out: KOX, dissociation constant of the phosphylated enzyme-oxime reversible complex
[3] = methamidophos-hAChE, oxime 0.1 mM
[4] = methamidophos-inhibited hAChE, ± SEM
[5] = fenamiphos-inhibited hAChE, ± SEM

## Cn1cc[n+](CCc2cn(CCC[N+](C)(C)CC=NO)nn2)c1C=NO
[1]; [3]
  Reactmax (screening): 62%
  kobs, observed reactivation rate (screening): 1.3721 min -1
  t, time to achieve maximum of reactivation (screening): 0.16 h
[1]; [4]
  k2, maximal first-order reactivation rate constant: 2.9 ± 0.6 min⁻¹
  Kd: 130 µM
[1]; methamidophos-inhibited hAChE, ± SEM, kr=k2/KOX
  kr, overall second-order reactivation rate constant: 22,400 ± 6,388 min^−1 M^−1
Human AChE
  Inhibition of AChE with oxime: 13%
[2]; fenamiphos-hAChE, oxime 0.1 mM
  Reactmax (screening): 42%
  kobs, observed reactivation rate (screening): 0.0061 min -1
  t, time to achieve maximum of reactivation (screening): 5 h
[2]; [5]
  k2, maximal first-order reactivation rate constant: 0.016 ± 0.002 min⁻¹
  Kd: 220 µM
[2]; fenamiphos-inhibited hAChE, ± SEM, kr=k2/KOX
  kr, overall second-order reactivation rate constant: 72 ± 12 min⁻¹ M⁻¹

## ON=Cc1cc[n+](CCn2cc(C[n+]3ccccc3C=NO)nn2)cc1 [Oxime 14A]
[1]; [4]
  Kd: 200 µM
[2]; [5]
  Kd: 810 µM
